## Yeast mating assay B: variants of the scFv Ab-14

All variants were tested on one target, the spike HR2 peptide PDVDLGDISGINAS (SARS-CoV-2).

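The parent was found by panning a naive human phage display library on the peptide. These sequences belong to a second round, designed from the earlier measurements on random variants of the parent. Several design methods are mixed in this list. The scFvs were displayed on barcoded MATa yeast, the peptide on MATalpha yeast. Mating (16 h, 30 °C) was followed by selection of diploids and sequencing of their barcodes. Each replicate has its own calibration line, from reference interactions of the BCL2 family. Mating was done six times.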

Each scFv is VH, the linker GGGGSGGGGSGGGGS, VL, as in the parent Ab-14, and differs from it in the CDRs of the heavy chain only.
VH: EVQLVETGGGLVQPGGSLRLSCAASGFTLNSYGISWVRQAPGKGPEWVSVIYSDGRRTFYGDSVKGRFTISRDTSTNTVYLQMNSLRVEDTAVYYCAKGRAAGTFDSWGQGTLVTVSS
VL: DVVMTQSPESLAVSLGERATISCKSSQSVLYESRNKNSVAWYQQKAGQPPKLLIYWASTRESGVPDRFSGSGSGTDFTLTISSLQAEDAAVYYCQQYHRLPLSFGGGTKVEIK

Each variant is given by its three heavy chain CDRs, as the data file delimits them; those of the parent are GFTLNSYGIS, VIYSDGRRTFYGDSVK, GRAAGTFDS. Affinities are written as log10 Kd with Kd in nM; a lower number is a better binder. Replicates are averaged; those with no signal do not enter the mean. An entry "not detected" has no value in the source: the pair was not observed among the diploids in any replicate. This suggests poor binding but is not conclusive. Of ten entries with the parent sequence, four were seen in most replicates (averages 0.34 to 2.37), three in one and three in none, so single entries are noisy. The authors averaged sequences with at least three values out of six and counted those with two or fewer as poor binders. A sequence measured in both rounds can read differently, since the two assays cover different ranges. Empty control strains, which show no peptide, gave a signal in 1% of pairings with all heavy chain designs; the median was 2.08 and 95% of these signals were weaker than 0.84. No background was subtracted.

CDR-H1	CDR-H2	CDR-H3	log10 Kd (nM), mean	seen in
GFTLNDYGIS	VIYSDGRRTFYVDSVK	GRAAGTFDS	not detected	0/6
GFDLNEYGIS	VIYADGMRQAYADSVK	GNNAGTFDI	0.69	6/6
GFSLNDYGIS	VIYSDGRRTFYGDSVK	GRTAGTFIS	0.66	1/6
GFGLNDYGIS	VIYSDGRRTFYGDSVK	GKAAGTFDS	not detected	0/6
GFSLNEYGIS	VIYSDGRRTFYGDSVK	GEAAGTFDN	0.26	6/6
GFTLNSYGIS	VIYSDGRRTFYTDSVK	GMFAGTFDS	2.02	1/6
GFSLNSYGIS	VIYSDGRRTFYADSVK	GRWAGTFDS	0.82	6/6
GFTLNSYGIS	VIPSDGERTFYGDSVR	GRHAGTFDS	not detected	0/6
GFDLNEYGIS	VIYADGRRTAYADSVK	GQIAGTFDT	-0.75	6/6
GFELNEYGIS	VIYSDGRRTFYGDSVK	GRTAGTFDY	-0.05	6/6
GFSLNEYGIS	VIYADGRRTFYGDSVK	GRAAGTFDQ	0.39	6/6
GFDLDEYGIS	VIYADGVRTAYADDVK	GQNAGTFDV	-0.34	6/6
GFDLDEYGIS	VIYADGMRTAYADSVK	GEVAGTFDL	-0.39	6/6
GFDLNEYGIS	VIYADGRRTFYSDSVK	GTNAGTFDS	-0.64	6/6
GFTLNSYGIS	VIYSDGRRTFYGDSVK	GPAAGTFDS	not detected	0/6
GFSLNDYGIS	VIYSDGQRTFYVDSVK	GRTAGTFDS	-0.07	6/6
GFDLNEYGIS	VIYADGSRVEYENKFK	GDVAGTFDS	2.04	5/6
GFELNSYGIS	VIYADGRRTFYGDSVK	GVAAGTFDS	0.26	6/6
GFTLNSYGIS	VIYSDGLRTFYGDKVK	GRAAGTFES	1.64	1/6
GFDLNEYGIS	VIYADGRRTFYADSVK	GNVAGTFDT	-0.44	6/6
GFTLDSYGIS	VIYSDGRRTFYDDSVK	GREAGTFDS	0.04	5/6
GFDLDEYGIS	VIYADGVRTAYADSVK	GENAGTFDM	-0.39	6/6
GFDLNEYGIS	VIYADGRRTFYADSVK	GEIAGTFDF	0.59	4/6
GFTLNSYGIS	VIYSDGRRTSYGDDVK	GNLAGEFAM	not detected	0/6
GFNLNEYGIS	VIYADGRRTFYADSVK	GEVAGSFDI	-0.14	6/6
GFDLNEYGIS	VIYADGMRTQYADSVK	GTNAGTFDV	-0.13	6/6
GFDLNSYGIS	VIYSDGLRTFYGDSVK	GRQAGTFDS	0.10	6/6
GFDVDEYGIS	VIYADGFRTSYAADVK	GSQVGNGLV	not detected	0/6
GFDLNEYGIS	VIYADGSRTAYADSVK	GEVAGTFDV	0.16	6/6
GFDLDEYGIS	VIYADGMRTAYADSVK	GNIAGTFDS	-0.23	6/6
GFDLNEYGIS	VIYADGKRTAYSDSVK	GETAGTFDQ	-0.47	6/6
GFDLNSYGIS	VIYSDGRRTFYQDSVK	GQAAGTFDA	0.57	6/6
GFDLNEYGIS	VIYADGMRRAYAQNFK	GVTGGGLGI	not detected	0/6
GFTLNDYGIS	VIYSDGKRTQYIDSVK	GRAAGTFDS	1.10	6/6
GFDLDEYGIS	VIYADGMRTYYADSVK	GENAGTFDI	0.06	6/6
GFTLNEYGIS	VIYSDGRRTFYGNSVK	GRFAGTFDS	1.97	4/6
GFDLNSYGIS	VIYSDGRRTFYHDEVK	GRTAGTFDS	-0.12	6/6
GFNLNSYGIS	VIYADGRRTFYGDSVK	GNAAGTFDS	0.24	6/6
GFDLDEYGIS	VIYADGVRTAYADDVK	GEVAGTFDV	-0.72	6/6
GFTLNEYGIS	VIYSDGRRTFYGDSVK	GRDACTFDS	not detected	0/6
GFDLNSYGIS	VIYSDGRRTFYQDRVK	GNAAGTFDS	0.45	3/6
EFNLNSYGIS	VIYSDGRRTFYGDSVK	GRNAGTFDS	1.62	1/6
GFTLNSYGIS	VIYSDGRRTHYGDSVK	GRAAGTFDS	not detected	0/6
GRTIDSYGIS	VIYSTGRRTFYGDSVK	GRKAGTALS	0.16	1/6
GFDLNEYGIS	VIYADGRRTFYIDSVK	GEVAGTFNV	-0.28	6/6
GFGLNDYGIS	VIYSDGRRTFYIDTVK	GNAAGTFDS	0.86	6/6
GFDLDEYGIS	VIYADGKRTAYSDSVK	GQVAGTFDV	-0.25	6/6
GFELNQYGIS	VIYSDGRRTFYGDSVK	GRTAGTFDS	0.05	6/6
GFELNSYGIS	VIYSDGRRTFYCDSVK	GRTAGTFDS	1.77	6/6
GFSLNEYGIS	VIYSDGRRTFYTDSVK	GRAAGTFDS	0.13	6/6
GFGLDEYGIS	VIYADGERKYYTDNVK	GHFGEIGIV	not detected	0/6
GFDLNSYGIS	VIYSDGRRTFYADRVK	GKAAGTFDT	3.10	2/6
GFDLEKYGIS	VIYADGKRVAYTDDVK	GVTGGMLLS	not detected	0/6
GFDLNEYGIS	VIYADGRRTFYSDSVK	GNVGGTFDS	0.01	6/6
GFSLNEYGIS	VIYSDGRRTFYGDAVK	GKAAGTFDS	1.15	6/6
GFDLNEYGIS	VIYADGRRTYYSDSVK	GEQAGTFDV	-0.39	6/6
GFTLNSYGIS	VIYSDGQRTFYGDSVK	GRARGTFDS	not detected	0/6
GFDLNEYGIS	VIYADGSRQMYADNVK	DVMGGMKLV	not detected	0/6
GFDLNEYGIS	VIYADGRRTSYTDSVK	GEAAGTFNV	-0.42	6/6
GFDLDNEGIS	VIYADGIRTSYQDSVK	GQNVATFNV	not detected	0/6
GFDLNSYGIS	VIYSDGKRTFYGDSVK	GRYAGTFDS	0.29	6/6
GFDLNLYGIS	VIYSDGRRTFYDDSVK	GQEAGTFDS	-0.14	6/6
GFALDDYGIA	VIYSDGRRTFYGDSVK	GRAAGTFRS	not detected	0/6
GFSLNSYGIS	VIYSDGRRTFYQDSVK	GRVAGTFDS	0.42	6/6
GFDLNSYGIS	VIYSDGRRTFYGDSVK	GRQAGSFDS	1.29	2/6
GFALDEYGIS	VIYADGTRSAYLETVK	GHTGADFIV	not detected	0/6
GFTLNQYGIS	VIYSDGRRTFYGNSVK	GRAARTFDS	not detected	0/6
GKDLEEYGIS	VIYADGMRTQYINAVK	GIAGDQFDV	not detected	0/6
GFSLNSYGIS	VIYSDGRRTFYVDSVK	GRNAGTFDT	0.34	6/6
GFTLNSYGIS	VIYSDGRRTAYDDSVR	GRAAGTFDS	0.79	6/6
GADLDEYGIS	VIYADGNRQAYANSFK	GTNGTFLIN	not detected	0/6
GFDLNSYGIS	VIYSDGRRTFYIDSVK	GKAAGTFDK	0.57	6/6
GFSLNSYGIS	VIYSDGRRTFYADNVK	GRAAGTFDS	0.44	6/6
GFTLNSYGIS	VIYSDGRRTHYMDSVK	GRIAFTFDS	not detected	0/6
GKSLDEYGIS	VIYADGTRAFYANSVK	GLITMVFGK	not detected	0/6
GFSLGEYGIS	VIYADGERTNYVSNFK	GVHAGTFDL	not detected	0/6
GFTLNEFGIC	VIYSDGRRTAYTDSVK	GRFAGTFDS	not detected	0/6
GFSLNSYGIS	VIYADGRRTFYGDSVK	GKAAGTFDV	1.21	6/6

Data: MIT Lincoln Laboratory AlphaSeq set, Li et al. 2023, doi:10.1038/s41467-023-39022-2, as distributed in FLAb.